Results taken from PubChem BioAssay AID2129 (The Scripps Research Institute Molecular Screening Center, 2009).
This is a selection; strong and weak results do not stand in their true shares. Calls of active or inactive are those of the source.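 How the source made its calls: active means inhibition above the mean of all tested compounds plus 3 SD, cutoff set per campaign (cut at about 30% in these data); inactive means the rest.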

Amino acid sequences for entries named in this document (tags omitted).
UniProt Q07817, whole entry: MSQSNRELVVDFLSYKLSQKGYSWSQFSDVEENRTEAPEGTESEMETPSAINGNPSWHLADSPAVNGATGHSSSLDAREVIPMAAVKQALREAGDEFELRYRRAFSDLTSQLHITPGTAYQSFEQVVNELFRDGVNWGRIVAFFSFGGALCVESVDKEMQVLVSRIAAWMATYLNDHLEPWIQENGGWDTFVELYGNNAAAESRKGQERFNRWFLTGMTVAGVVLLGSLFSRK

target: Bcl-2-like protein 1 (Homo sapiens) (UniProt Q07817); experiment: inhibitors of human Bcl-xL, primary screen, biochemical, fluorescence polarization, HTS (AID 2129); conditions: GST-Bcl-xL / FITC-Bim BH3 peptide fluorescence polarization; at 10.9 µM; hits give high values;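 further: 0% = DMSO wells and 100% = unlabeled Bim-BH3 peptide competitor; inhibitors lower millipolarization by displacing the labeled peptide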

Row | Structure (SMILES) | inhibition
1 | CN(C)C1(CNC(=O)c2cccc(C#N)c2)CCCCC1 | inactive: 0.39%
2 | CCCN1CCC(Nc2cc(OC)cc(OC)c2)CC1 | active: 34.9%
3 | c1ccc(CN2CCC(Nc3ccccc3)CC2)cc1 | inactive: -0.4%
4 | N#Cc1ccc(C(=O)NCC2(N3CCCCC3)CCCCC2)cc1 | inactive: -3.35%
5 | CC(C)(C)OC(=O)N1CCC(N(C(=O)c2ccccc2)c2ccc(Cl)cc2)CC1 | inactive: 6.29%
6 | O=C(OC1CN2CCC1CC2)C1c2ccccc2C=Cc2ccccc21 (stereo not given) | inactive: 5.01%
7 | CCc1cc(C(=O)NCC2(N3CCCCC3)CCCCC2)sc1C | inactive: 8.65%
8 | CCOC(=O)N1CCC(Nc2ccc(C)cc2)CC1 | inactive: 4.36%
9 | N/C(=N\O)c1c(N)no[n+]1[O-] | inactive: 2.09%
10 | COc1ccc(C(=O)NCC2(N3CCOCC3)CCCCC2)cc1OC | inactive: 3.14%
11 | O=C(NCC1(N2CCOCC2)CCCCC1)c1cc(Br)ccc1Cl | inactive: 2.62%
12 | CN1CCC(Nc2ccc(Cl)cc2)CC1 | inactive: 4.33%
13 | CCCOc1ccc(C)cc1CN(CCCl)CCCl | inactive: 5.5%
14 | COc1cccc(C(=O)N(c2cc(C)cc(C)c2)C2CCN(C(=O)OC(C)(C)C)CC2)c1 | inactive: -3.7%
15 | COc1cc(OC)cc(C(=O)NCC2(N3CCOCC3)CCCCC2)c1 | inactive: -1.71%
16 | CCC(CO)(C(=O)OC1CN2CCC1CC2)c1ccccc1 (stereo not given) | inactive: 0.54%
17 | O=C(O)C1(Nc2ccccc2)CCN(Cc2ccccc2)CC1 | inactive: -1.17%
18 | CC(C)(C)OC(=O)N1CCC(Nc2ccccc2)CC1 | inactive: 3.18%
19 | CCCOc1ccc(C(=O)NCC2(N(C)C)CCCCC2)cc1 | inactive: 4.4%
20 | CN1CCC(Nc2ccc(F)c(Cl)c2)CC1 | inactive: -0.35%
21 | CCOc1ncccc1C(=O)NCC1(N2CCOCC2)CCCCC1 | inactive: 0.54%
22 | CN(C)c1ccc(C(=O)NCC2(N3CCCCC3)CCCCC2)cc1 | inactive: 2.88%
23 | O=C(NCC1(N2CCCCC2)CCCCC1)c1ccco1 | inactive: -0.14%
24 | CCN1CCC(Nc2cccc(F)c2)CC1 | inactive: -2.77%
25 | Fc1ccccc1NC1CCN(Cc2ccccc2)CC1 | inactive: -0.16%
26 | Cc1ccc(C(=O)NCC2(N3CCCCC3)CCCCC2)o1 | inactive: 5.88%
27 | COc1cc(OC)cc(C(=O)NCC2(N3CCCCC3)CCCCC2)c1 | inactive: 1.97%
28 | Cc1ccc(OCC(C)C)c(CN(CCCl)CCCl)c1 | inactive: 2.31%
29 | CCOC(=O)N1CCC(Nc2cccc(C)c2)CC1 | inactive: 2.28%
30 | COc1ccc(NC2CCN(CCc3ccccc3)CC2)c(OC)c1 | inactive: 6.95%
